We go through one substance from patent US11484625B2, “Stem cells and devices for bone regeneration” (Alfred E. Mann Institute for Biomedical Engineering at the …, priority 2017, dated 2022).

For this series, the system named is femoral CSD. In words: Long bone critical-sized defect model (2-mm femoral ostectomy). The class given is in vivo, nude mice. An excerpt:
Mice were placed in ventral recumbence with the left hind limb in extension. An anterolateral approach was used to expose the anterior surface of the femur. Briefly, after a lateral longitudinal cutaneous incision along the femur extending from the hip joint to the stifle joint was made, the fascia lata was incised to expose the full length of the femur, preserving the sciatic nerve caudally and the articular capsule distally. An anterior polyether ether ketone (PEEK) microlocking plate (MouseFix Plate; RISystem AG, Davos, Switzerland) was applied on the anterior femoral side. Next, four holes were drilled using a 0.3-mm drill bit (Drill Bit 0.30 mm; RISystem AG, Davos, Switzerland) and four self-tapping locking screws (MouseFix Screw 2 mm; RISystem AG, Davos, Switzerland) were inserted through the most proximal and most distal holes of the plate and locked to secure the plate. Gigli saws (0.22 mm; RISystem AG, Davos, Switzerland) were then inserted, one each in the two slots of the jig (Drill and Saw Guide; RISystem AG, Davos, Switzerland), and a 2-mm-long mid-diaphyseal femoral ostectomy was subsequently performed. The defect was either left empty or filled with different combinations of the PCL scaffolds and cells indicated to test long bone regenerative ability.
Radiographs were taken every two weeks to evaluate the bone union process until 3 months after the surgery. Immediately after euthanasia at 3 months post-surgery, all left femoral bones were excised. All overlaying muscle tissue was carefully removed. The femoral bones were fixed in 4% paraformaldehyde (pH 7.4) overnight. The plate and screws were removed and the samples were then decalcified in 10% EDTA (pH 7.4) for four weeks. Samples were passed through serial concentrations of ethanol for embedding in paraffin wax and sectioned at 7 μm using a microtome (Leica). Deparaffinized sections were stained with Hematoxylin and Eosin using standard procedures for general morphology.

Entries after “also recorded” stand apart in the source; their conditions may differ.

Regarding “BMP: Bone morphogenetic protein 2, growth factor”, where the note is “injected in the defect site every 3 days for the first two weeks, 8-week period”, the “bone regeneration with multiple doses” value is “union of the cortical bone at the defect site was detectable radiographically; also recorded: accelerate the healing”. In addition, the ectopic bone formation entry (multiple doses injected in the defect site) is “some ectopic bone formation surrounding the injury site”. Moreover, for the setting “multiple doses, BMP vs IHH agonist”, the “bone regenerative ability, compared” value is “stronger bone regenerative ability than IHH agonist”.
